Drawing on US10899738B2 (THE REGENTS OF THE UNIVERSITY OF MICHIGAN, priority 2016, dated 2021), this text covers IC50 for 1 compound.

Protein sequences, listed by entry. Tags and fused reporters are not part of them.
UniProt O00255, whole entry: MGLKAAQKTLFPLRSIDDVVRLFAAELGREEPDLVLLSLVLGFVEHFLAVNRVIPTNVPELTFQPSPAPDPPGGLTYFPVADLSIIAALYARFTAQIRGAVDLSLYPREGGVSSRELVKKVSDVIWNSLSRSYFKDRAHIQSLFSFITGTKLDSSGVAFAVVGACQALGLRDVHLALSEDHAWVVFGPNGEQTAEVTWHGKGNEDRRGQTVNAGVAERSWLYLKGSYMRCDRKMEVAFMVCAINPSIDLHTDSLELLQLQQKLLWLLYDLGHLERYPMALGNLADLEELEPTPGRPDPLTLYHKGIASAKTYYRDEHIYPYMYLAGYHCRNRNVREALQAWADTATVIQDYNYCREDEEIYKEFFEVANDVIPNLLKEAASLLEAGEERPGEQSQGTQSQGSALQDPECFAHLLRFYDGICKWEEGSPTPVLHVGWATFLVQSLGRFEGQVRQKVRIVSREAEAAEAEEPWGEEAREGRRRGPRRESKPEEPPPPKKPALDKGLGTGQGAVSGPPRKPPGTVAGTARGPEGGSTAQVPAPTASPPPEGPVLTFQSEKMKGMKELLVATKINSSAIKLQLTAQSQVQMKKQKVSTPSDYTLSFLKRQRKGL

The experiment concerns the target menin protein (Homo sapiens (Human), UniProt O00255). Particulars: read-out: Menin Binding Affinity IC50. How it is done:
A fluorescence polarization (FP) competitive binding assay was used to determine the binding affinities of representative menin inhibitors. A FAM labeled fluorescent probe was designed and synthesized based on a MLL1 peptide (FAM-MM2). Equilibrium dissociation constant (Kd) value of FAM-MM2 to menin protein was determined from protein saturation experiments by monitoring the total fluorescence polarization of mixtures composed with the fluorescent probe at a fixed concentration and the protein with increasing concentrations up to full saturation. Serial dilutions of the protein were mixed with FAM-MM2 to a final volume of 200 μl in the assay buffer (PBS with 0.02% Bovine γ-Globulin and 4% DMSO. 0.01% Triton X-100 was added right before assays). Final FAM-MM2 concentration was 2 nM. Plates were incubated at room temperature for 30 minutes with gentle shaking to assure equilibrium.
The IC50, see Table 3, and Ki values of representative Compounds of the Disclosure were determined in a competitive binding experiment. Mixtures of 5 μl of the tested compounds in DMSO and 195 μl of preincubated protein/probe complex solution in the assay buffer were added into assay plates which were incubated at room temperature for 30 minutes with gentle shaking. […] FP values were measured as described above. IC50 values were determined by nonlinear regression fitting of the competition curves.

Consider `N#Cc1ccc(OCCCN2CCC(C3(C4CCCC4)NCCc4ccccc43)CC2)cc1` (stereo not shown) [compound 27, 4-(3-(4-(1-cyclopentyl-1,2,3,4-tetrahydroisoquinolin-1-yl)piperidin-1-yl)propoxy)benzonitrile], for which the half-maximal inhibitory concentration (IC50) amounted to 71 nM.
